Earlier results on one substance are cited in US5023358A, “Vanadyl organo-mineral compound, method for obtaining such a compound, pharmaceutical composition containing this organo-mineral compound” (Panmedica S.A., priority 1987, dated 1991).

The conditions of the series: oral; cited from earlier work.

sodium vanadate: the digestive toxicity result is listed as “presents a digestive toxicity”.
